The record followed here is patent EP4671247A1, “SUBSTITUTED PYRAZOLOPYRIMIDINE COMPOUND AND PHARMACEUTICAL USE THEREOF” (Japan Tobacco Inc., priority 2023, dated 2024).

Protein sequences, listed by entry. Tags and fused reporters are not part of them.
UniProt Q96P20, whole entry: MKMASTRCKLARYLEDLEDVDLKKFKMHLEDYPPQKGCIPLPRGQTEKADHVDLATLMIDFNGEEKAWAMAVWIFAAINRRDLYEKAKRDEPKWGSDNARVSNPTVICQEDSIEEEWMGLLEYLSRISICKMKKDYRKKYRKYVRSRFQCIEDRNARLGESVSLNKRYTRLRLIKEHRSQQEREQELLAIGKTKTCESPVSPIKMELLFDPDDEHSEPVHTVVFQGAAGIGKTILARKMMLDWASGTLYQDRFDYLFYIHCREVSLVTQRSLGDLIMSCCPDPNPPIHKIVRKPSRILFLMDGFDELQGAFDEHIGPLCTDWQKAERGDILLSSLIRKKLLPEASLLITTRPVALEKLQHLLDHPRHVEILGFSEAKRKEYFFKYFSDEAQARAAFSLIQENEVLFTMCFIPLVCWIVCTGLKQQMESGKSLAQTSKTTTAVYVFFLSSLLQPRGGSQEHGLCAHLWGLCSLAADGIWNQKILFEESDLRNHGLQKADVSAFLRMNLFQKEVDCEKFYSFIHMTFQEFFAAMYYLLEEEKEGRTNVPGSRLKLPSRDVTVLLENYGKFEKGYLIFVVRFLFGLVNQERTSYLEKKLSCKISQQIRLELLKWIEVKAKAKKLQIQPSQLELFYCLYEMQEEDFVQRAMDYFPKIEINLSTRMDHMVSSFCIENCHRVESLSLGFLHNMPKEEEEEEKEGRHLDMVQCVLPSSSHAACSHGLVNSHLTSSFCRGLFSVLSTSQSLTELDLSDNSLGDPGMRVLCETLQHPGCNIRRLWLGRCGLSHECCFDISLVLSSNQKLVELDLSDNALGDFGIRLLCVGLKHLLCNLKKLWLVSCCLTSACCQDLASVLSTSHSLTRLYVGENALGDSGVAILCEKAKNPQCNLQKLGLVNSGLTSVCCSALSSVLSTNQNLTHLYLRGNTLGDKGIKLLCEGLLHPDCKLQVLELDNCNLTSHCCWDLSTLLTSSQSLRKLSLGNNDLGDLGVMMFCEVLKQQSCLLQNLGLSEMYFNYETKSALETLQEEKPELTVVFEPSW

What is called pIC50 is the IC50 on a negative log10 scale, so that one unit is a factor of ten.

pIC50: −log10 of the molar value.

In this test the target is NLRP3 inflammasome (Homo sapiens, UniProt Q96P20). Put plainly: Evaluation of NLRP3 inflammasome inhibitory activity (inhibition of IL-1β production in LPS/Nigericin-stimulated THP1-Null cells, AlphaLISA). The following applies: IL-1β production in THP1-Null cells; PMA, 1 µg/mL Lipopolysaccharides 3 hours, Nigericin 7.5 µmol/L 1.5 hours. (Bead proximity is the source of the signal in Alpha formats.)

Turning to `Cc1cc(Br)cc(C)c1-n1cc2c(=O)[nH]c(C34CCOC(CO3)C4)nc2n1` (racemic), the pIC50 is 6.74.
